From ChEMBL document CHEMBL4765389, “Antimicrobial and anti-inflammatory activities of short dodecapeptides derived from duck cathelicidin: Plausible mechanism of bactericidal action and endotoxin neutralization” (Eur J Med Chem, 2020)
Values after ≈ are worked out from the molar mass of the structure shown.

Experiments:
Staphylococcus aureus [1] = assay: Antibacterial activity against Staphylococcus aureus KCTC 1621 assessed as reduction in bacterial growth incubated for 24 hrs by CLSI based broth dilution method; type: functional; settings: read-out: MIC100
Salmonella typhimurium = assay: Antibacterial activity against Salmonella typhimurium KCTC 1926 assessed as reduction in bacterial growth incubated for 24 hrs by CLSI based broth dilution method; type: functional, Salmonella enterica subsp. enterica serovar Typhimurium; settings: Salmonella enterica, read-out: MIC100
Bacillus subtilis = assay: Antibacterial activity against Bacillus subtilis KCTC 3068 assessed as reduction in bacterial growth incubated for 24 hrs by CLSI based broth dilution method; type: functional; settings: read-out: MIC100
Staphylococcus aureus [2] = assay: Antibacterial activity against methicillin-resistant Staphylococcus aureus CCARM 3089 assessed as reduction in bacterial growth incubated for 24 hrs by CLSI based broth dilution method; type: functional; settings: read-out: MIC100
Staphylococcus aureus [3] = assay: Antibacterial activity against methicillin-resistant Staphylococcus aureus CCARM 3095 assessed as reduction in bacterial growth incubated for 24 hrs by CLSI based broth dilution method; type: functional; settings: read-out: MIC100
Escherichia coli = assay: Antibacterial activity against Escherichia coli KCTC 1682 assessed as reduction in bacterial growth incubated for 24 hrs by CLSI based broth dilution method; type: functional; settings: read-out: MIC100
[4] = tested on: Staphylococcus epidermidis; assay: Antibacterial activity against Staphylococcus epidermidis KCTC 1917 assessed as reduction in bacterial growth incubated for 24 hrs by CLSI based broth dilution method; type: functional; settings: read-out: MIC100
Pseudomonas aeruginosa = assay: Antibacterial activity against Pseudomonas aeruginosa KCTC 1637 assessed as reduction in bacterial growth incubated for 24 hrs by CLSI based broth dilution method; type: functional; settings: read-out: MIC100
Staphylococcus aureus [5] = assay: Antibacterial activity against methicillin-resistant Staphylococcus aureus CCARM 3090 assessed as reduction in bacterial growth incubated for 24 hrs by CLSI based broth dilution method; type: functional; settings: read-out: MIC100

For `CC[C@H](C)[C@H](NC(=O)CN)C(=O)NCC(=O)N[C@@H](C)C(=O)N[C@H](C(=O)N[C@@H](CC(C)C)C(=O)N[C@@H](CCCCN)C(=O)N[C@H](C(=O)N[C@@H](CC(C)C)C(=O)N[C@H](C(=O)N[C@H](C(=O)NCC(=O)N[C@@H](CC(C)C)C(=O)N1CCC[C@H]1C(=O)N[C@@H](C)C(=O)N[C@@H](CC(C)C)C(=O)N[C@H](C(=O)N[C@@H](CO)C(=O)N[C@@H](Cc1c[nH]c2ccccc12)C(=O)N[C@H](C(=O)N[C@@H](CCCCN)C(=O)N[C@@H](CCCNC(=N)N)C(=O)N[C@@H](CCCCN)C(=O)N[C@@H](CCCNC(=N)N)C(=O)N[C@@H](CCC(N)=O)C(=O)N[C@@H](CCC(N)=O)C(N)=O)[C@@H](C)CC)[C@@H](C)CC)[C@@H](C)O)[C@@H](C)O)C(C)C)C(C)C` [MELITTIN], the MIC (Staphylococcus aureus [1]) was 4 µM (≈ 11.4 µg/mL), the MIC (Salmonella typhimurium) was 2 µM (≈ 5.69 µg/mL) and the MIC (Bacillus subtilis) was 4 µM (≈ 11.4 µg/mL). The MIC (Staphylococcus aureus [2]) was 32 µM (≈ 91.1 µg/mL), the MIC (Staphylococcus aureus [3]) was 32 µM (≈ 91.1 µg/mL) and the MIC (Escherichia coli) was 16 µM (≈ 45.5 µg/mL). For the same compound, the MIC [4] was 8 µM (≈ 22.8 µg/mL), the MIC (Pseudomonas aeruginosa) was 4 µM (≈ 11.4 µg/mL) and the MIC (Staphylococcus aureus [5]) was 16 µM (≈ 45.5 µg/mL).
